For assay [1], the target named is T1, HsPHD2^181-426 (Homo sapiens, UniProt Q9GZT9). Also on record: compared to the truncated human PHD isoform 2 (HsPHD2^181-426); method as in PMID 25120187. The settings on record: read-out: Km (2OG), previous studies; cited from earlier work.
In assay [2] the target is T1, HsPHD2^181-426. The settings on record: pH 7.5. The procedure: Notes: (A) Sequence alignment of TaHIFa, HsHIFa, and substrates of PHD-like enzymes in Dictyostelium discoideum (DdSkp1) and Pseudomonas putida (PpEF-Tu). […] Peptide hydroxylation was analyzed by MALDI-MS; the apparent non-enzymatic Met oxidation was subtracted. Data were fitted with the Michaelis-Menten equation using GraphPad Prism® (errors are indicated as standard deviations, n=3).

Protein sequences, listed by entry. Tags and fused reporters are not part of them. Residues count along the entry.
UniProt Q9GZT9, 181-426: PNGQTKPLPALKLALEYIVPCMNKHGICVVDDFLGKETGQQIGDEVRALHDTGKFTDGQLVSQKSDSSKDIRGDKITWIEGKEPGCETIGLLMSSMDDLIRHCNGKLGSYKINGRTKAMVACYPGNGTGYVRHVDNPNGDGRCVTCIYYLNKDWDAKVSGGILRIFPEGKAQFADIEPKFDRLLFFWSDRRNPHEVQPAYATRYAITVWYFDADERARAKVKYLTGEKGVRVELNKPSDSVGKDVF

Consider `O=C(O)CCC(=O)C(=O)O` [2OG, 2-oxoglutarate], for which the Km – broadly, the substrate concentration at which the rate is half of its maximum – at HsPHD2^181-426 [1] was 13 ± 2 µM. Also, at HsPHD2^181-426 [2], the “2OG decarboxylation in presence of substrate” value is reported as “strongly increased in presence of substrate”.

The values above are taken from paper PMC6235002, “Born to sense: biophysical analyses of the oxygen sensing prolyl hydroxylase from the simplest animal Trichoplax adhaerens” (Hypoxia, 2018).
